Values of other authors in patent US6310072A (priority 1995, dated 2001).

Test system: μ-opioid receptor
Conditions: [3H]-DAMGO; compared with morphine; cited from earlier work

For `COc1ccc2c3c1O[C@H]1C(=O)CC[C@@]4(O)[C@@H](C2)N(C)CC[C@]314` [oxycodone], the “Affinity for the μ-opioid receptor” value is listed as “low compared with that of morphine”.
